Biological target: T1, PHF1 Tudor, wt (Homo sapiens, UniProt O43189)
T1 sequence (O43189 7-83): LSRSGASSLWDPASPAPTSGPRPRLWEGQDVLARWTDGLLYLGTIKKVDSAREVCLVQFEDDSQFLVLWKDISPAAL
Assay: ITC binding of PHF1 Tudor, wt, to histone peptides
Settings: recombinant PHF1 Tudor wt, curve fit

- N: 0.70 ± 0.23
- ΔH: -0.817 ± 0.343 kcal/mol
- ΔS: 17.3 cal/mol/deg
Substance: H3(1–15)K9me3: histone H3 peptide, residues 1–15, trimethylated at lysine 9

Reference: publication PMC3570589 (Molecular cell, 2012)
